Assay results published in US20240309003A1, “HETEROCYCLIC COMPOUNDS AS TRIGGERING RECEPTOR EXPRESSED ON MYELOID CELLS 2 AGONISTS AND METHODS OF USE” (Vigil Neuroscience, Inc., priority 2021, published 2024).

The chains behind the UniProt entries cited, without tags or fusion partners. Residues count along the entry.
UniProt Q9NZC2, 19-230 limits assumed: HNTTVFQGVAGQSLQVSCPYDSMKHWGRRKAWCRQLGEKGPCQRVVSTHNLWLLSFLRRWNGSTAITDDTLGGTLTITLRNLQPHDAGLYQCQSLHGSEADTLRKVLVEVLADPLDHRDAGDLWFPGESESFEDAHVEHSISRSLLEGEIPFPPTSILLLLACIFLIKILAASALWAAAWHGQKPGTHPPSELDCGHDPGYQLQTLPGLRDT
UniProt O43914, 22-113 partner limits assumed: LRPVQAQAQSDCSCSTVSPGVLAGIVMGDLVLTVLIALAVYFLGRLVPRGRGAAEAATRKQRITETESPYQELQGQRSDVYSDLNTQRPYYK

What follows are compounds tested against human TREM2 (Homo sapiens, UniProt Q9NZC2) (assay: TREM2 agonist potency by cellular phosphorylation of Syk (AlphaLisa) in HEK293T-hTREM2 cells). Conditions: read-out: hTREM2 EC50, HEK293 cells expressing human TREM2 and DAP12, Table D.

`Cc1cnc2c(-c3ccc(F)cc3F)nc([C@H]3CCO[C@@H](c4cnn(C5CC5)c4)C3)cc2n1` (relative stereo) and `Cc1cnc2c(-c3ccc(F)cc3F)nc([C@H]3C[C@@H](C)O[C@@H](c4cnn(C5CC5)c4)C3)cc2n1` (relative stereo) fall in the same range of EC50: 50 to 500 nM for the first, 50 to 500 nM for the second.

Same assay, conditions: read-out: hTREM2 EC50, HEK293 cells expressing human TREM2 and DAP12, Table D-2

`Cc1nc2nc([C@@H]3CCO[C@H](c4cnn(C5CC5)c4)C3)nc(-c3ccc(C(C)(C)C#N)cc3F)c2nc1C` and `Cc1nc2nc([C@@H]3CCO[C@H](c4cnn(C5CC5)c4)C3)nc(-c3ccc(C(C)(C)C)cc3F)c2nc1C` fall in the same range of EC50: 3000 to 100000 nM for the first, 3000 to 100000 nM for the second.

Compared with `Cc1nc2nc([C@@H]3CO[C@H](c4cnn(C5CC5)c4)C3)nc(-c3ccc(Cl)cc3)c2nc1C`, `Cc1nc2nc([C@H]3CO[C@H](c4cnn(C5CC5)c4)C3)nc(-c3ccc(C(F)(F)F)cc3)c2nc1C` is higher in EC50: 50 to 500 nM for the first, 500 to 3000 nM for the second. The first is the more potent here.

First: Cc1nc2cc([C@H]3CCO[C@@H](c4cnn(C5CC5)c4)C3)nc(-c3ccc(F)cc3F)c2nc1COCC(F)(F)F
Second: Cc1nc2cc([C@H]3CCO[C@@H](c4cnn(C5CC5)c4)C3)nc(-c3ccc(F)cc3F)c2nc1COCCF
The EC50 of the first is lower: 50 to 500 nM for the first, 3000 to 100000 nM for the second. The first is the more potent here.

First: Cc1nc2nc([C@H]3CCO[C@@H](c4cnn(Cc5ccccc5)c4)C3)nc(-c3ccc(F)cc3F)c2nc1C
Second: COc1ccc(Cn2cc([C@H]3C[C@@H](c4nc(-c5ccc(F)cc5F)c5nc(C)c(C)nc5n4)CCO3)cn2)cc1
The EC50 of the first is lower: under 50 nM for the first, 50 to 500 nM for the second. The first is the more potent here.

`Cc1nc2nc(N3CCO[C@@H](c4cc(C5CC5)on4)C3)nc(-c3ccc(Cl)cc3F)c2nc1C` and `Cc1nc2nc(N3CCO[C@H](c4cnn5c4CCC5)C3)nc(-c3ccc(F)cc3F)c2nc1C` [Example I-1529, (2R)-4-[4-(2,4-difluorophenyl)-6,7-dimethyl-pteridin-2-yl]-2-(5,6-dihydro-4H-pyrrolo[1,2-b]pyrazol-3-yl)morpholine] fall in the same range of EC50: 50 to 500 nM for the first, 50 to 500 nM for the second.

`Cc1nc2nc([C@H]3CCO[C@@H](c4cnn(C5CC5)c4)C3)nc(-c3ccc4c(c3)CC4)c2nc1C` and `Cc1nc2nc([C@@H]3CCO[C@H](c4cnn(C5CC5)c4)C3)nc(-c3ccc4c(c3)OCO4)c2nc1C` fall in the same range of EC50: 50 to 500 nM for the first, 50 to 500 nM for the second.

Compared with `Cc1nc2nc(N3CCS(=O)(=O)[C@H](c4cnn(C5CC5)c4)C3)nc(-c3ccc(Cl)cc3F)c2nc1C`, `Cc1nc2nc(C3(O)CCOC(c4cnn(C5CC5)c4)C3)nc(-c3ccc(Cl)cc3F)c2nc1C` (stereo not drawn) is lower in EC50: 500 to 3000 nM for the first, 50 to 500 nM for the second. The second is the more potent here.

First: CC(=O)N(C)CCn1cc(C2CC(c3nc(-c4ccc(F)cc4F)c4nc(C)c(C)nc4n3)CCO2)cn1 (stereo not drawn)
Second: Cc1nc2nc(C3CCOC(c4cnn(C(C)C)c4)C3)nc(-c3ccc(F)cc3F)c2nc1C (stereo not drawn)
The EC50 of the first is higher: 500 to 3000 nM for the first, under 50 nM for the second.

Compared with `Cc1nc2nc(C3CCO[C@@H](c4cnn(C5CC5)c4)C3)nc(-c3ccc(OC(F)(F)F)cc3F)c2nc1C` (stereo partly drawn), `Cc1nc2nc([C@@H]3CCO[C@H](c4cnn(C5CC5)c4)C3)nc(-c3cc(F)c(C(F)(F)F)cc3F)c2nc1C` is lower in EC50: 50 to 500 nM for the first, under 50 nM for the second. The second is the more potent here.

Compared with `Cc1nc2cc([C@H]3CCO[C@@H](c4cnn(C5CC5)c4)C3)nc(-c3ccc(F)cc3F)c2nc1COC1COC1`, `CCOc1nc2c(-c3ccc(F)cc3F)nc(C3CCOC(c4cnn(C5CC5)c4)C3)nc2nc1C` (stereo not drawn) is lower in EC50: 500 to 3000 nM for the first, under 50 nM for the second. The second is the more potent here.

Compared with `Cc1nc2nc([C@@H]3CO[C@H](c4cnn(C5CC5)c4)C3)nc(-c3ccc(C(F)(F)F)cc3)c2nc1C`, `Cc1nc2nc(C3CCOC(c4cnn(C5CC5(F)F)c4)C3)nc(-c3ccc(C(F)(F)F)cc3F)c2nc1C` (stereo not drawn) is lower in EC50: 500 to 3000 nM for the first, under 50 nM for the second. The second is the more potent here.

First: [2H]c1c([2H])c(-c2nc(N3C[C@@H](c4cnn(C5CC5)c4)O[C@@H](C)C3)nc3nc(C)c(C)nc23)c(F)c([2H])c1F
Second: Cc1nc2nc(N3C[C@@H](c4cnn(C5CC5)c4)O[C@@H](C)C3)nc(C3CCC3)c2nc1C
The EC50 of the first is lower: under 50 nM for the first, 50 to 500 nM for the second.

`Cc1nc2nc(N3C[C@@H](c4cnn(C5CC5)c4)O[C@@H](C)C3)nc(C3CCCCC3)c2nc1C` and `Cc1cnc2c(-c3ccc(C(F)(F)F)cc3F)nc(N3C[C@@H](C)O[C@@H](c4cnn(C5CC5)c4)C3)nc2n1` cannot be ordered by EC50: under 50 nM for the first, under 50 nM for the second.

First: Cc1nc2nc([C@H]3CCO[C@@H](c4cnn(C5CC5)c4)C3)nc(-c3cccc4c3OCO4)c2nc1C
Second: Cc1nc2cc(-c3nc([C@@H]4CCO[C@H](c5cnn(C6CC6)c5)C4)nc4nc(C)c(C)nc34)ccc2s1
The EC50 of the first is lower: 500 to 3000 nM for the first, 3000 to 100000 nM for the second. The first is the more potent here.
